Measured values published in publication PMC7083837 (2020).

The chains behind the UniProt entries cited, without tags or fusion partners.
UniProt P31645, whole entry: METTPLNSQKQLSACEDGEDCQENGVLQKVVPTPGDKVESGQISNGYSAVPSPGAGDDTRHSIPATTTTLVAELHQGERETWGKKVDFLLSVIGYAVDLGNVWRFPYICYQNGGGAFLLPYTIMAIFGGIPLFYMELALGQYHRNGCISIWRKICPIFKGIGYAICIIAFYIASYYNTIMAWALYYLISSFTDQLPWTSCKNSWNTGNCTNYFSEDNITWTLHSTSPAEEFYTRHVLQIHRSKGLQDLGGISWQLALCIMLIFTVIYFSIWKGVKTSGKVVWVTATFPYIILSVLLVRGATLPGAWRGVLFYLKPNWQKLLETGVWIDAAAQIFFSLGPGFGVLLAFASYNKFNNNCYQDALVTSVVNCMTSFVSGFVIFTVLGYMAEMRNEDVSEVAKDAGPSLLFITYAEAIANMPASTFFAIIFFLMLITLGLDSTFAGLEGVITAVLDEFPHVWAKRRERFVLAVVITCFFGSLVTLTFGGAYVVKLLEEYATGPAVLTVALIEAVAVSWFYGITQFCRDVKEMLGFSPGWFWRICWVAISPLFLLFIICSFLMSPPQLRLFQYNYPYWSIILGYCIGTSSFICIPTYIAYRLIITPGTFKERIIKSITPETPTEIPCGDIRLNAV

Molecular target: SERT WT (Homo sapiens, UniProt P31645)
Assay: [3H]5-HT uptake in intact COS-7 cells
Details: IMI 4 nM, Lu AF60097 27 nM, alone or together

CN(C)CCCN1c2ccccc2CCc2ccccc21 [imipramine, reference compound]
[^3H]5-HT uptake (in % of buffer/control): 89.3 ± 0.8%
